In EP4796557A1, “POLYPEPTIDE, BIOACTIVE CONJUGATE, AND PREPARATION METHOD THEREFOR AND USE THEREOF” (priority 2023, dated 2025) one finds IC50 data, which are given here for three substances.

The test system of experiment [1] is JIMT-1 cells. The experiment can be described thus: In vitro killing assay of the anti-Her2-ADC against JIMT-1 tumor cells (CTG). It counts as cell-based. As to conditions: JIMT-1, in vitro proliferation inhibition, CTG (Table 20).
The test system of experiment [2] is NCI-N87 cells. Put plainly: In vitro killing assay of the anti-Her2-ADC against NCI-N87 tumor cells (CTG). Type of experiment: cell-based. The following applies: NCI-N87, in vitro proliferation inhibition, CTG (Table 21).

For anti-Her2-ADC-08, in experiment [1], the IC50 (in general, the midpoint of a concentration-inhibition curve) was 2.59 nM.
Turning to anti-Her2-ADC-12, the midpoint of inhibition in experiment [2], the IC50, lay at 5.8 nM.
The same measure, in the same setting: then anti-Her2-ADC-14, with 0.472 nM.
